Assays:
[1] = biological target: Delta-type opioid receptor (Homo sapiens) (UniProt P41143); assay: Agonist activity at human delta opioid receptor expressed in CHO membrane assessed as stimulation of [35S]GTP-gamma-S binding relative to SNC80
[2] = biological target: Kappa-type opioid receptor (Homo sapiens) (UniProt P41145); assay: Agonist activity at human kappa opioid receptor expressed in CHO membrane assessed as stimulation of [35S]GTP-gamma-S binding relative to dynorphin A

Chains of the proteins cited; added tags and fusions are not shown.
UniProt P41143, whole entry: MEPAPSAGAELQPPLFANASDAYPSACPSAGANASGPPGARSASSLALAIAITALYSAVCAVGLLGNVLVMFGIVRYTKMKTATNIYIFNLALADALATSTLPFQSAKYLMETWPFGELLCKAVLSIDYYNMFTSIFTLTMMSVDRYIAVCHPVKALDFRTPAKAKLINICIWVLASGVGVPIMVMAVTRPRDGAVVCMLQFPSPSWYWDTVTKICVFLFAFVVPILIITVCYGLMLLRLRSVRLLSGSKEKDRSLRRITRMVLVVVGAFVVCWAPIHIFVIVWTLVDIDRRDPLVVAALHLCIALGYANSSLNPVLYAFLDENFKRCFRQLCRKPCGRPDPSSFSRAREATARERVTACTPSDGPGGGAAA
UniProt P41145, whole entry: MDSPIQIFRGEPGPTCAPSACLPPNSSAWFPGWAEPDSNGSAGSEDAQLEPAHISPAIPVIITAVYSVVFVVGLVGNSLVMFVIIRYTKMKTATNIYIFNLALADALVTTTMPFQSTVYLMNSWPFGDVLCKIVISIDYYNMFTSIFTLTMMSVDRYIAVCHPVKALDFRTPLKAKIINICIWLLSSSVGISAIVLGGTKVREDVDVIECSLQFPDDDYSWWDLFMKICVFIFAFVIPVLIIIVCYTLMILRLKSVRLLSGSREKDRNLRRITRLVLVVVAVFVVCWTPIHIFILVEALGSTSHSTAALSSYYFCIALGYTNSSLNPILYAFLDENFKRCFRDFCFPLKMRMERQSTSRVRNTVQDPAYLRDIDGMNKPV

SMILES | Activity [1] | Activity [2]
CO[C@]12CC(O)[C@@]3(C[C@@H]1[C@@H](C)O)[C@H]1Cc4ccc(O)c5c4[C@@]3(CCN1C)[C@H]2O5 (stereo partly drawn) | 1.4% | 0.47%
CO[C@]12C(O)C[C@@]3(C[C@@H]1[C@H](C)O)[C@H]1Cc4ccc(O)c5c4[C@@]3(CCN1C)[C@H]2O5 (stereo partly drawn) | 1.2% | 0.55%
CO[C@]12C(O)C[C@@]3(C[C@@H]1[C@@H](C)O)[C@H]1Cc4ccc(O)c5c4[C@@]3(CCN1C)[C@H]2O5 (stereo partly drawn) | 1.3% | 0.75%
CO[C@]12CC(O)[C@@]3(C[C@@H]1[C@H](C)O)[C@H]1Cc4ccc(O)c5c4[C@@]3(CCN1C)[C@H]2O5 (stereo partly drawn) | 1.4% | 0.25%
